From paper PMC9428891 (Frontiers in Pharmacology, 2022)

Amino acid sequences for entries named in this document (tags omitted). Residues count along the entry.
UniProt O42275, 24-633: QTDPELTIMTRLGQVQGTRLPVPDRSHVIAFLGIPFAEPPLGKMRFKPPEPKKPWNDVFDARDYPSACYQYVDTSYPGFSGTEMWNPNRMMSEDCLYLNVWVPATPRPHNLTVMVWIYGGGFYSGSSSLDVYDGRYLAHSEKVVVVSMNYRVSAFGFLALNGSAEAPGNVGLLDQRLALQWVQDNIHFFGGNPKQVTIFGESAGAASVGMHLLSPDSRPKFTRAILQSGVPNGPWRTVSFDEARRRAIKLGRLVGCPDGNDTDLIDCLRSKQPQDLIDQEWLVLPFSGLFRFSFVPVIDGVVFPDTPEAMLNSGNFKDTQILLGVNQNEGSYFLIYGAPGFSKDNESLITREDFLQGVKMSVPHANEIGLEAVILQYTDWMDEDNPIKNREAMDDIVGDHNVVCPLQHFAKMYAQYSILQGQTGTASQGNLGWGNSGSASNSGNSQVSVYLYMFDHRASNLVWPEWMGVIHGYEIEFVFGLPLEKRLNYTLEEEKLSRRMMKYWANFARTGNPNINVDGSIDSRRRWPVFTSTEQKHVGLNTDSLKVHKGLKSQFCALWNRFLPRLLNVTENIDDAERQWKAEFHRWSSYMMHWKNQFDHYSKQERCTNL

Molecular target: T1, acetylcholinesterase (AChE) (Electrophorus electricus, UniProt O42275)
T1 construct: purchased Sigma Aldrich C3389-2KU
Assay: biochemical
Conditions: read-out: K i ± SEM
Protocol: Enzyme-substrate (ES) is the complex of AChE and acetylcholine, while P represents the product formed after the reaction’s completion. Dissociation constant values were calculated through Dixon plots, their secondary replots, and the Lineweaver-Burk plot ([Khan et al., 2021]).
The values of K m, K i, and V max were determined from Dixon and Lineweaver-Burk plots using no linear regression equation.
GraFit software ([Khan et al., 2021]) was utilized for plotting graphs. The values of the correlation coefficients, slopes, intercepts, and their standard errors were determined by the linear regression equation using the same program.
During kinetic studies, the reaction rate was measured and the effect of different concentrations of a substrate on the enzyme was investigated. The kinetic study of enzymes helped to determine the catalytic mechanism of enzymes. […] The rate of reaction [V] was plotted against various substrate concentrations [S] at constant enzyme concentration. Initially, the rate of reaction [V] increases as substrate concentration increases, and at higher [S], the enzyme becomes saturated, and the rate of reaction reaches V max, which is referred to as the maximum rate of reaction.
The dissociation constant K i values were found using three different methods. […]

In the case of `CCSc1nc2ccccc2n1CC(=O)N/N=C/c1c2ccccc2cc2ccccc12` [Compound 14], the Ki is reported as 19.2 ± 1.9 µM.
